Measurements: ChEMBL document CHEMBL3817793, “Recent Progress in the Discovery of Next Generation Inhibitors of Aromatase from the Structure-Function Perspective” (J Med Chem, 2016)

Chains of the proteins cited; added tags and fusions are not shown. Lines headed by an entry give the natural chain unless they say otherwise; changes in a name come on top.
UniProt P11511: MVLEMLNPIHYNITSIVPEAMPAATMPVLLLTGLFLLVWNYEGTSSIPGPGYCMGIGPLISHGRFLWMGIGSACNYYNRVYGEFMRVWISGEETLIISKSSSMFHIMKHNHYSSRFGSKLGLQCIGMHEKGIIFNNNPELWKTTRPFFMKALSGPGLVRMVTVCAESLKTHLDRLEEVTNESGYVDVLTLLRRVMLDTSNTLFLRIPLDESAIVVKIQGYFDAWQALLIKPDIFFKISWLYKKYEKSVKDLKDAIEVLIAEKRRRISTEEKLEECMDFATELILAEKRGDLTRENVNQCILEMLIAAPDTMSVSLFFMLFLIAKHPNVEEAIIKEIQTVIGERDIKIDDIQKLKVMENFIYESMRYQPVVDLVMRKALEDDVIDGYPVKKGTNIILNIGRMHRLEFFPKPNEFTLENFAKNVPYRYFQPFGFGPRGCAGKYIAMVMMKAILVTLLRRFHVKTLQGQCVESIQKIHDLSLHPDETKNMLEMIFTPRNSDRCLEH

Molecular target: Aromatase (Homo sapiens, UniProt P11511)
Assay: Inhibition of human placental microsomal aromatase using testosterone as substrate assessed as formation of estradiol after 10 mins

CC/C(=C(\c1ccc(O)cc1)c1ccc(OCCN)cc1)c1ccccc1
IC50: 30 nM
